The record followed here is patent publication US20110195929A1, “COMPOUNDS FOR THE TREATMENT OF FLAVIVIRAL INFECTIONS” (SUMMIT CORPORATION PLC, priority 2008, published 2011).

For this experiment, the system named is HCV. In words: Cell-based HCV infection NS3 protease FRET assay in DMSO-Huh7 cells. Note: test concentration or dose not given here. As to conditions: DMSO-Huh7 cells infected with HCV at 0.05 ffu/cell; HCV NS3 protein levels by FRET, day 6 p.i. Also noted: species or system hepatitis C virus (HCV).

As for “(2R,3S,4S)-4-hydroxy-2-(4-methoxybenzyl)pyrrolidin-3-yl acetate [Compound 5]”, the Ave % inhibition entry is “+++++ (+++++: ≧80%)”.
